According to patent US9187429B2, “Phenyl-tetrahydroisoquinoline derivatives” (Hoffmann-La Roche Inc., priority 2012, dated 2015):
pEC50: −log10 of the molar value.

By UniProt entry, the sequences of proteins in these tests, tags left out. Residues count along the entry.
UniProt P15538, 25-503: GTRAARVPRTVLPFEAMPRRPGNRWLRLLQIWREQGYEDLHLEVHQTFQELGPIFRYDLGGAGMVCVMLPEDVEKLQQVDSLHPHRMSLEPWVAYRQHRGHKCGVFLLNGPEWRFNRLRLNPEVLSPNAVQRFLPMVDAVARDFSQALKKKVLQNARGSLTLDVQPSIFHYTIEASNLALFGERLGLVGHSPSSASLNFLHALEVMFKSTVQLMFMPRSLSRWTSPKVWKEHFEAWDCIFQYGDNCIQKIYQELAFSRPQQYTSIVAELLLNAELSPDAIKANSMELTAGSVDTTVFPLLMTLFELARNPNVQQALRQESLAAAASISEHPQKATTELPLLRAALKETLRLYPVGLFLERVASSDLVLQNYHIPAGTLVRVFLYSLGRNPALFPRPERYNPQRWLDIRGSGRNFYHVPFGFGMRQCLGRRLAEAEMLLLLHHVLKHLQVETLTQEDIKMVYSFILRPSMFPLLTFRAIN
UniProt P19099, 25-503: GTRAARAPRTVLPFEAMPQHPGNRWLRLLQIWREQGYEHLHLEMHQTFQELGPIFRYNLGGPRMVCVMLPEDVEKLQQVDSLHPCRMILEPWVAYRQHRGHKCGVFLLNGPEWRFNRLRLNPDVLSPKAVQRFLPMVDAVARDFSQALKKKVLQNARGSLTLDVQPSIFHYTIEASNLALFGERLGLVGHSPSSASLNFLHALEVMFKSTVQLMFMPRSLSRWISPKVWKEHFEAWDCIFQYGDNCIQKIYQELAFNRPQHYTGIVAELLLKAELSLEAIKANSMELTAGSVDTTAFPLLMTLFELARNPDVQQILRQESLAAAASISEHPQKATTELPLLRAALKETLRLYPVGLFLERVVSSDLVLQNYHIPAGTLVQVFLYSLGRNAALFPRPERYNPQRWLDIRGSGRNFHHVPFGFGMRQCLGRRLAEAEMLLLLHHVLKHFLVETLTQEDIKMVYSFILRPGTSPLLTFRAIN

Key:
human CYP11B1 = human CYP11B1 (Homo sapiens (Human), UniProt P15538); test: G-402 cellular enzyme assay, human CYP11B1 (cortisol release); format: cell-based; settings: G-402 cells expressing human CYP11B1, 1 μM Deoxycortisol
Source text: Herein we identified the use of the G-402 cell line as a host cell to ectopically express (transiently or stably) enzymes of the CYP11 family. Specifically we developed stable G-402 cells expressing ectopically human CYP11B1, human CYP11B2, human CYP11A1, cynmolgus CYP11B1 or cynomolgus CYP11B2 enzyme activity. Importantly the identified cell line G-402 expresses co-factors (adrenodoxin and adrenodoxin reductase) important for the activity of the CYP11 family and no relevant enzyme activity of the CYP11 family (in comparison to H295R cells) was detected in these cells. Therefore the G-402 cell line is uniquely suited as a host cell for the ectopic expression of enzymes from the CYP11 family.
The expression plasmids contains the ORF for either human/cyno CYP11B1 or CYP11B2 under the control of a suitable promoter (CMV-promoter) and a suitable resistance marker (neomycin). Using standard techniques the expression plasmid is transfected into G-402 cells and these cells are then selected for expressing the given resistance markers. Individual cell-clones are then selected and assessed for displaying the desired enzymatic activity using 11-Deoxycorticosterone (Cyp 11B2) or 11-Deoxycortisol (Cyp 11B1) as a substrate. […]
[formula] wherein, A is the maximum y value, B is the EC50 factor determined using XLFit, C is the minimum y value and D is the slope value. […]

CYP11B2 = CYP11B2 (Homo sapiens (Human), UniProt P19099); test: G-402 cellular enzyme assay, human CYP11B2 (aldosterone release); format: cell-based; settings: G-402 cells expressing human CYP11B2, 1 μM Deoxycorticosterone

- pEC50 (human CYP11B1): 5.38
- pEC50 (CYP11B2): 6.91
Compound: CC(C)C(=O)NC1CCCc2c(-c3ccc(C#N)cc3)cncc21 (racemic) [Example 9, (rac)-N-(4-(4-Cyanophenyl)-5,6,7,8-tetrahydroisoquinolin-8-yl)isobutyramide]
